# Results published in US12558350B2, “Compositions and methods for treatment” (Bausch + Lomb Ireland Limited, priority 2005, dated 2026).
# Protein sequences, listed by entry. Tags and fused reporters are not part of them. Residues count along the entry.
# UniProt P05107, 23-769 limits assumed: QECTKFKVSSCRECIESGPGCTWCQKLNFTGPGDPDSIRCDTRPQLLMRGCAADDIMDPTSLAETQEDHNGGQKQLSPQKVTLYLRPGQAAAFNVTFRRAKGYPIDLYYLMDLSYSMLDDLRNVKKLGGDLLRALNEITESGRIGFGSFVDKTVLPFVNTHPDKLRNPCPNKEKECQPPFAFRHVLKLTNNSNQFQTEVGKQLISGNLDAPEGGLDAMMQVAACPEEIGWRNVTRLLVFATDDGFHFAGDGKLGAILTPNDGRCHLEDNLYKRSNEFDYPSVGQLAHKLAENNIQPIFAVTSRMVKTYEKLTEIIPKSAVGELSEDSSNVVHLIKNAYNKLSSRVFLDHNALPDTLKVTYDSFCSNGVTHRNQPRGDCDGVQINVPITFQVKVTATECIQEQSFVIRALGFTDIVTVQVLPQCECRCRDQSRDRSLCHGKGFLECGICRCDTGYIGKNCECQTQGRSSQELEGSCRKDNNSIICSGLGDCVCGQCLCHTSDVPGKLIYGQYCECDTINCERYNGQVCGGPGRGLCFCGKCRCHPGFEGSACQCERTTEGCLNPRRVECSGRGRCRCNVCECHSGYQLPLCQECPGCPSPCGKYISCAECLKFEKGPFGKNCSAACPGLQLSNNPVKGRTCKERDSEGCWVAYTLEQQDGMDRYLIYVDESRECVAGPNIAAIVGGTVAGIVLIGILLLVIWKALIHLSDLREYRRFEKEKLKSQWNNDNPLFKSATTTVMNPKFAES
# UniProt P20701, 26-1170 limits assumed: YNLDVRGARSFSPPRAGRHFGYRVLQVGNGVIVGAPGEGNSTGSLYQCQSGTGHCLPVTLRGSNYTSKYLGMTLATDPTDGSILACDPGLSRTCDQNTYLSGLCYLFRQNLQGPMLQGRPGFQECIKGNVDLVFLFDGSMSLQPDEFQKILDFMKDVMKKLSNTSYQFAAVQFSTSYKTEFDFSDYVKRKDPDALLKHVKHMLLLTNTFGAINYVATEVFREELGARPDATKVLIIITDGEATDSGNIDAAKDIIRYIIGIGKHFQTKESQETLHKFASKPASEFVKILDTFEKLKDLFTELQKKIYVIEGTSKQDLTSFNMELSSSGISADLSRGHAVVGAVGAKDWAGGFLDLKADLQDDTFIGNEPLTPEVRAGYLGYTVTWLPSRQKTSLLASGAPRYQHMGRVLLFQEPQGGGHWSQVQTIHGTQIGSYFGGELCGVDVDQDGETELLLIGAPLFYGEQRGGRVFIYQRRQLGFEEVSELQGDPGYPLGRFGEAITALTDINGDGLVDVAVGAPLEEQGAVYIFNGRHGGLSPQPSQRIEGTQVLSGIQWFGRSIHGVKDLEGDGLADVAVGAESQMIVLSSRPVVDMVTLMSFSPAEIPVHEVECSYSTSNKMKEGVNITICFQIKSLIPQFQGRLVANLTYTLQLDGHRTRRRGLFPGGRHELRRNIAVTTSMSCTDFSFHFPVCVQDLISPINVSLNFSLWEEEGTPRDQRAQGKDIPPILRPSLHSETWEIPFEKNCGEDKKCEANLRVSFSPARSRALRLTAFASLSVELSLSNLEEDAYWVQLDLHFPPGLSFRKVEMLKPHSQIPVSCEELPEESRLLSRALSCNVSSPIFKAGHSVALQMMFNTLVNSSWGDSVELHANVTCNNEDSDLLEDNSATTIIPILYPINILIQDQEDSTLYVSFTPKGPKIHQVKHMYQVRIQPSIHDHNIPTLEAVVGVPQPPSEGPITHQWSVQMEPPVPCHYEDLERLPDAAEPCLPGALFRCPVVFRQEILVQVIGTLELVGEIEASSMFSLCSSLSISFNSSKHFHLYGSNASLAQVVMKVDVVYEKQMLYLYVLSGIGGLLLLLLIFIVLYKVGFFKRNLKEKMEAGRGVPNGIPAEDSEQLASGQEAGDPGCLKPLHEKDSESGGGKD
# pIC50: −log10 of the molar value.
# Experiments:
# [1] = biological target: T1, LFA-1/ICAM-1 (Homo sapiens, UniProt P05107+P20701); test: LFA-1/ICAM-1 ELISA, antagonist competition; assay type: binding; details: FIG. 8A
# [2] = system: LFA-1 induced lymphocyte proliferation; details: read-out: IC50, inhibition of LFA-1 induced lymphocyte proliferation; in vitro; Gadek et al. 2002; cited from earlier work
# [3] = biological target: T1, LFA-1/ICAM-1; test: LFA-1/ICAM-1 ligand binding ELISA with Schild analysis
# [4] = biological target: T2, LFA-1 (Homo sapiens, UniProt P05107+P20701); test: Photocrosslinking of tritium-labeled compound 5 to LFA-1, SDS-PAGE and autoradiography; details: 290 μM compound 3 during incubation; gel filtered
# [5] = biological target: T2, LFA-1; test: LFA-1/small molecule ELISA, antagonist competition with compound 2B; details: read-out: IC50, inhibition of binding of compound 2B to LFA-1; 25 nM compound 2B; FIG. 8B
# [6] = biological target: T2, LFA-1; test: LFA-1/small molecule ligand binding ELISA; details: FIG. 10B, D, F
smiles,measurement,setting,value
NCCCCCC(=O)NCCCC[C@H](NC(=O)c1ccc(C(=O)NCc2cccc(O)c2)cc1Cl)C(=O)O,"IC50 relative to that of compound 3, inhibition of ICAM-1-Ig binding to LFA-1",[1],approximately 10 fold
O=C(NC[C@H](NC(=O)c1c(Cl)cc(CCC(O)c2cccc(O)c2)cc1Cl)C(=O)O)c1cccs1 (stereo partly drawn),pIC50,[2],8.52
NC(=O)C[C@H](NC(=O)c1ccc(C(=O)NCc2cccc(O)c2)cc1Cl)C(=O)O,effect of increasing antagonist concentration on ICAM-1-Ig binding curves,"[3]; FIG. 10A, C, E",shifted the binding of ICAM-1-Ig to higher EC50 values with minimal variation in maximal ICAM-1-Ig binding
same,slope of Schild regression,"[3]; ligand ICAM-1-Ig, FIG. 11",1.24
same,y-intercept of Schild regression,"[3]; ligand ICAM-1-Ig, FIG. 11",10.9
same,effect on incorporation of tritium from compound 5 into the αL subunit,[4],substantially reduced
same,pIC50,[5],8.52
same,pIC50,"[1]; read-out: IC50, inhibition of binding of ICAM-1-Ig to LFA-1, MnCl2",8.70
same,effect of increasing antagonist concentration on compound 2B binding curves,[6],shifted the compound 2B binding curves to higher EC50 values with no reduction in maximal binding
